Results: patent US7338669B2, “Inorganic boranophosphate salts” (Bar-Ilan University, priority 2005, dated 2008)

Experiment: Solubility of BPi salts in water and organic solvents
Format: physicochemical
Conditions: in water

- water solubility: highly water-soluble
Substance: Ammonium Boranophosphate [Compound 2a]
